Measurements published in paper PMC3602279 (Bioorganic & medicinal chemistry letters, 2013).
Where two headings read alike, the source gives them in different places.

Protein sequences, listed by entry. Tags and fused reporters are not part of them. Lines headed by an entry give the natural chain unless they say otherwise; changes in a name come on top.
UniProt P41145: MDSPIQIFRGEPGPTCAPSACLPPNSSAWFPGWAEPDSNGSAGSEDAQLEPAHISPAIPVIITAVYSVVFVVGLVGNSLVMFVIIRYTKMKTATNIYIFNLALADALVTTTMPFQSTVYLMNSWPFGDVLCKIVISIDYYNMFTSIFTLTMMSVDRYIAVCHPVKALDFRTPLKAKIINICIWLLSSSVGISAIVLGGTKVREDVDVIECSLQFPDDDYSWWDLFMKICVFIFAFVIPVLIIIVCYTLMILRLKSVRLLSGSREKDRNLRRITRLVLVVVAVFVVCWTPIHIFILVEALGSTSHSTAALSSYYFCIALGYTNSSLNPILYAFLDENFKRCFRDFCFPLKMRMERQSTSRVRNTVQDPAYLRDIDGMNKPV

Target: human κ opioid receptor (Homo sapiens, UniProt P41145)
Assay: [35S]GTPγS binding, stimulation and inhibition of agonist-stimulated binding
Format: biochemical

| SMILES | EC50 (Kappa Opioid Receptor, stimulation of [35S]GTPγS binding) [nM] | EC50 [nM] |
| --- | --- | --- |
| C[C@H]1C2Cc3ccc(C(N)=O)cc3[C@@]1(C)CCN2CC1CC1 [Compound 2, 8-carboxamidocyclazocine, reference compound] | 4.4 ± 0.73 | – |
| CC1C2Cc3ccc(C(=O)NCCc4ccc(-c5ccccc5)cc4)cc3C1(C)CCN2CC1CC1 (racemic) [Compound 1, N-(2-[1,1′-biphenyl]-4-ylethyl)-3-(cyclopropylmethyl)-1,2,3,4,5,6-hexahydro-6,11-dimethyl-2,6-methano-3-benzazocine-8-carboxamide, reference compound] | – | 3 ± 0.5 |
